Amino acid sequences for entries named in this document (tags omitted).
UniProt P10696, whole entry, looked up: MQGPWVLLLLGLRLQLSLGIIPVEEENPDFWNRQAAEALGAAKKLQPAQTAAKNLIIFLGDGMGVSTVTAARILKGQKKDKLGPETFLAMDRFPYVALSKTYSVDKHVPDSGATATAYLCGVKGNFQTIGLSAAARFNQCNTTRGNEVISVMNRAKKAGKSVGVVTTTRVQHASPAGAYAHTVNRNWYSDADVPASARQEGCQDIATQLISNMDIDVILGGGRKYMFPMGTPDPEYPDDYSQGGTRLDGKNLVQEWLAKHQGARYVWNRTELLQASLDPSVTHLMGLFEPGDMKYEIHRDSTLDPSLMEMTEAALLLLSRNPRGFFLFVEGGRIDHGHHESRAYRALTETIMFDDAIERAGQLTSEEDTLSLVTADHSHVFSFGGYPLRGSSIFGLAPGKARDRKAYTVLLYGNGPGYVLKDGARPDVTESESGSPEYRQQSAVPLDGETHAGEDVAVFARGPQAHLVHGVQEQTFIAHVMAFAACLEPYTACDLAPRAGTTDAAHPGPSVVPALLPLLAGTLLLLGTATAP
UniProt P08289, whole entry, looked up: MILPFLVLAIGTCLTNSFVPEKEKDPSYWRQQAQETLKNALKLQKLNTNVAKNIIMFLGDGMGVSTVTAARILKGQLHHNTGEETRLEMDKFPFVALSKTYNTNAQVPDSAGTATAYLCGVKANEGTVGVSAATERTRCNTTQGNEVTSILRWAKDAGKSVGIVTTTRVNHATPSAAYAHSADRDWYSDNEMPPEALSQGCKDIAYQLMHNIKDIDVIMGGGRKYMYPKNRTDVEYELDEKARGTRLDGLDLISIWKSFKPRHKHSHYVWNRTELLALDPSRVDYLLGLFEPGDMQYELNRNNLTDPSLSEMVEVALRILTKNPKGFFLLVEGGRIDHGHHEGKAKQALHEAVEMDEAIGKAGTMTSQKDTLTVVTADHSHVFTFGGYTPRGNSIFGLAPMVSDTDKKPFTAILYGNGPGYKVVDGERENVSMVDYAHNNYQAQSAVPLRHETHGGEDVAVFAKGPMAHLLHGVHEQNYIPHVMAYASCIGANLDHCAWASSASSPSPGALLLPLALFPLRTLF
UniProt P03772, whole entry, looked up: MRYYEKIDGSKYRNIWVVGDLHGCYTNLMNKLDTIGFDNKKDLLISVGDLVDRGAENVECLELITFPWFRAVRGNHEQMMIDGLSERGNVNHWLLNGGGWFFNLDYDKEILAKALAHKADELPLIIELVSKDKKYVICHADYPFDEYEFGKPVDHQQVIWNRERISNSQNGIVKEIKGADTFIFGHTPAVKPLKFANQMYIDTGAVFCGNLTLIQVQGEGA

In BindingDB's records for 12904075:

Experiments:
[1] = target: Alkaline phosphatase, germ cell type (Homo sapiens, UniProt P10696); test: ASSAY_NAME: ChEMBL_157081 (CHEMBL765525) DESCRIPTION: Inhibition of Human Placental alkaline Phosphatase (PLAP)
[2] = target: Alkaline phosphatase, tissue-nonspecific isozyme (Rattus norvegicus, UniProt P08289); test: ASSAY_NAME: ChEMBL_29961 (CHEMBL640395) DESCRIPTION: Inhibitory activity against Escherichia coli Alkaline Phosphatase
[3] = target: Serine/threonine-protein phosphatase (Lambdavirus lambda, UniProt P03772); test: ASSAY_NAME: ChEMBL_96757 (CHEMBL705380) DESCRIPTION: Inhibitory activity against Serine/Threonine Protein Phosphatase (Lambda protein phosphatase)

Compound | Ki [1] | Ki [2] | Ki [3]
CCCP(=O)(O)O | 1.55 mM | 0.61 mM | –
CP(=O)(O)O | 11 mM | – | 1.01 mM
CP(O)(O)=S | 19 mM | – | 17 mM
